Data published in patent US20230295259A1 (Protagonist Therapeutics, Inc., priority 2020, published 2023).

Each substance was assayed against T1, ferroportin (endogenously expressed in T47D cells) (Homo sapiens, UniProt Q9NP59) (assay: T47D cell-based ferroportin internalization assay in presence of 0.5% mouse serum albumin (AF647-conjugated detection peptide, flow cytometry)). Conditions: read-out: IC50: T47D Internalization MSA.
T1 construct: is a human breast carcinoma adherent cell line which endogenously expresses ferroportin; host or cells: T47D
T1 sequence (Q9NP59 1-571): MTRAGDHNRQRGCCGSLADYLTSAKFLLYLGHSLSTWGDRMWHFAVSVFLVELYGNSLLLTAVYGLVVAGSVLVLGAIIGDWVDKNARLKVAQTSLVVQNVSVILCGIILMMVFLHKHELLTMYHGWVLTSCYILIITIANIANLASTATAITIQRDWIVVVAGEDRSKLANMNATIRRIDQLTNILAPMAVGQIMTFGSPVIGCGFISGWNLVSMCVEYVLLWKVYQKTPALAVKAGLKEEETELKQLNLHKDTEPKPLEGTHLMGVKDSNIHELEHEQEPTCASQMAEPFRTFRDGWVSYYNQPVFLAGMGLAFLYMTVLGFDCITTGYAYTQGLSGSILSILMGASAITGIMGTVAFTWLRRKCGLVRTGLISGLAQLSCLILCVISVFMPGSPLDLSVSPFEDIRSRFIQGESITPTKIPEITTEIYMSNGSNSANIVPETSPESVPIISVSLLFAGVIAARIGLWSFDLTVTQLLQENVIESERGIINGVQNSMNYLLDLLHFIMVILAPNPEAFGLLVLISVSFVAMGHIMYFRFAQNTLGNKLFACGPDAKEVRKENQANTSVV

Substance | IC50 [nM]
Isovaleric Acid-E-T-H-[Dpa]-P-[Cys]-I-[Lys(2Peg11′_IsoGlu_C20_Diacid)]-[bhPhe]-[(D)Lys]-[Cys]-NH2 [Compound 111] | 230
Isovaleric Acid-E-T-H-[Dpa]-P—C—I-[Lys(1PEG2_1PEG2_IsoGlu_C12_Diacid)]-[bhPhe]-[(D)Lys]-C—NH2 [Compound 234] | 51.2

Same assay, conditions: read-out: T47D IC50, Table 2C, class symbols

Substance | IC50 [nM]
[Isovaleric Acid]-E-T-L-[Dpa]-P—C—I-[(D)Lys]-[bhPhe]-[Lys(Ahx_Palm)]-[(D)Lys]-C—NH2 [Compound 618] | 101 to 500
[Isovaleric Acid]-E-T-A-[Dpa]-P—C—I-[(D)Lys]-[bhPhe]-[Lys(Ahx_Palm)]-[(D)Lys]-C—NH2 [Compound 614] | 11 to 100
[Isovaleric Acid]-E-T-[Dab]-[Dpa]-P—C—I-[(D)Lys]-[bhPhe]-[Lys(PEG12_Palm)]-R—C—NH2 [Compound 602] | 1 to 10
[Isovaleric Acid]-E-[Dab]-H-[Dpa]-P—C—I-[(D)Lys]-[bhPhe]-[Lys(PEG12_Palm)]-[(D)Lys]-C—NH2 [Compound 610] | 1 to 10
[Isovaleric Acid]-E-T-[Dap]-[Dpa]-P—C—I-[(D)Lys]-[bhPhe]-[Lys(PEG12_Palm)]-R—C—NH2 [Compound 603] | 11 to 100

What follows are substances tested against T2, human ferroportin (Homo sapiens, UniProt Q9NP59) (assay: FPN activity assay: internalization/degradation of ferroportin-GFP in stably transfected HEK293 cells (decrease in GFP fluorescence)). Conditions: Table 2A; HEK293 cells expressing human ferroportin-GFP, at least 18 hours incubation; read-out: FPN EC50.
T2 construct: expressed in transfected cells
T2 sequence (Q9NP59 1-571): T1 sequence (Q9NP59 1-571)
Assay type: cell-based
Description: Following internalization, the ferroportin protein is degraded.
A retro inverse peptide is a peptide with a reversed sequence in all D amino acids. An example is that Hy-Glu-Thr-His-NH2 becomes Hy-DHis-DThr-DGlu-NH2. The EC50 of these reference compounds for ferroportin internalization/degradation was determined according to the FPN activity assay described above. These peptides served as control standards.
These values were determined as described herein.

Substance | DC50 [nM]
Isovaleric Acid-E-T-H-[Dpa]-P-[Cys]-I-[Lys(2Peg11′_IsoGlu_C20_Diacid)]-[bhPhe]-[(D)Lys]-[Cys]-NH2 [Compound 111] | 39.4
Isovaleric Acid-E-T-H-[Dpa]-P-[Cys]-I-[Lys(2Peg8_Ahx_Palm)]-[bhPhe]-[(D)Lys]-[Cys]-NH2 [Compound 63] | 24.7
Isovaleric Acid-E-T-H-[Dpa]-P-[Cys]-I-[(D)Lys]-[bhPhe]-[Lys(IsoGlu_Palm)]-[(D)Lys]-[Cys]-NH2 [Compound 68] | 5.2
Isovaleric Acid-E-T-H-[Dpa]-P-[Cys]-I-[Lys(Ahx_Ahx_C18_Diacid)]-[bhPhe]-[(D)Lys]-[Cys]-NH2 [Compound 34] | 15.4
Isovaleric Acid-E-T-H-[Dpa]-P-[Cys]-I-[Lys(2Peg11′_Ahx_Palm)]-[bhPhe]-[(D)Lys]-[Cys]-NH2 [Compound 32] | 15.4
Isovaleric Acid-E-T-H-[Dpa]-P-[Cys]-I-[Lys(Ac)]-[bhPhe]-[(D)Lys(Ac)]-[Cys]-NH2 [Compound 120] | 10.7
Isovaleric Acid-E-T-H-[Dpa]-P-[Cys]-I-[Lys(Ac)]-[bhPhe]-K-R-[Cys]-NH2 [Compound 42] | > 3000
Isovaleric Acid-E-T-H-[Dpa]-P-[Cys]-I-[(D)Lys_IVA)]-[bhPhe]-[Lys(Ahx_Palm)]-[(D)Lys_IVA)]-[Cys]-NH2 [Compound 106] | 20.3
Isovaleric Acid-E-T-H-[Dpa]-P-[Cys]-I-[Lys(Ac)]-[bhPhe]-[(D)Lys]-[Cys]-NH2 [Compound 118] | 12.1
Isovaleric Acid-E-T-H-[Dpa]-P-[Cys]-L-[(D)Lys]-[bhPhe]-[Lys(Ahx_Palm)]-[(D)Lys]-[Cys]-NH2 [Compound 88] | 6.9
Isovaleric Acid-E-T-H-[Dpa]-P-[Cys]-I-[Lys(1Peg2_Ahx_C18_Diacid)]-[bhPhe]-[(D)Lys]-[Cys]-NH2 [Compound 116] | 13.7
Isovaleric Acid-E-T-H-[Dpa]-P-[Cys]-I-[(D)Lys]-[a-MePhe]-[Lys(2Peg11′_Palm)]-R-[Cys]-NH2 [Compound 28] | 28
Isovaleric Acid-E-T-H-[Dpa]-P-[Cys]-I-[Lys(2Peg11′_Ahx_IsoGlu_Behenic_acid)]-[bhPhe]-[(D)Lys]-[Cys]-NH2 [Compound 31] | 18.7
Isovaleric Acid-E-T-H-[Dpa]-P-[Cys]-I-[Lys(2Peg11′_2Peg11′_Palm)]-[bhPhe]-[(D)Lys]-[Cys]-NH2 [Compound 38] | 17.8
Isovaleric Acid-E-T-H-[Dpa]-P-[Cys]-I-[Lys(Ac)]-[bhPhe]-[(D)Lys(Ac)]-[Cys]-[(D)Glu]-NH2 [Compound 123] | 90
Isovaleric Acid-E-T-H-[Dpa]-P-[Cys]-I-[Lys(1PEG2_1PEG2_Ahx_C18_Diacid)]-[bhPhe]-[N—((CH2)5NH2)Gly]-[Cys]-NH2 [Compound 135] | 16.6
Isovaleric Acid-E-T-H-[Dpa]-P-[Cys]-I-[(D)Lys]-[bhPhe]-[Lys(Ahx_Palm)]-[(D)Lys_IVA)]-[Cys]-NH2 [Compound 96] | 24
Isovaleric Acid-E-T-H-[Dpa]-P-[Cys]-I-[Lys(Ado_IsoGlu_C18_Diacid)]-[bhPhe]-[(D)Lys]-[Cys]-NH2 [Compound 37] | 94.2
Isovaleric Acid-E-T-H-[Dpa]-P-[Cys]-I-[(D)Lys]-[bhPhe]-[Lys(2Peg11′_Palm)]-R-[Cys]-NH2 [Compound 27] | 20
Isovaleric Acid-E-T-H-[Dpa]-P-[Cys]-I-[Lys(Ac)]-[bhPhe]-[(D)Lys(Ac)]-[Cys]-[(D)Asp]-NH2 [Compound 125] | 91
Isovaleric Acid-E-T-H-[Dpa]-P-[Cys]-I-[Lys(1Peg2_1Peg2_IsoGlu_C18_Diacid)]-[bhPhe]-[(D)Lys]-[Cys]-NH2 [Compound 119] | 72.1
Isovaleric Acid-E-T-H-[Dpa]-P-[Cys]-I-[bhPhe]-[Lys(Ahx_Palm)]-[(D)Lys]-[Cys]-NH2 [Compound 78] | 39.3
Isovaleric Acid-E-T-H-[Dpa]-P-[Cys]-I-[Lys(1Peg2_Ahx_Palm)]-[bhPhe]-[(D)Lys]-[Cys]-NH2 [Compound 62] | 16.3
Isovaleric Acid-E-T-H-[Dpa]-P-[Cys]-I-[(D)Lys]-[bhPhe]-[Lys(Ahx_Palm)]-[(D)Lys]-[(D)Cys]-NH2 [Compound 94] | 21

Same assay, conditions: Table 2B; HEK293 cells expressing human ferroportin-GFP, at least 18 hours incubation; read-out: FPN EC50

Substance | DC50 [nM]
Isovaleric Acid-E-T-H-[Dpa]-P—C—I-[Lys(1PEG2_1PEG2_IsoGlu_C12_Diacid)]-[bhPhe]-[(D)Lys]-C—NH2 [Compound 234] | 11.5
Isovaleric Acid-E-T-H-[Dpa]-P—C—I-[Lys(1PEG2_1PEG2_Ahx_C18_Diacid)]-[bhPhe]-[Lys(PEG11_OMe)]—C—NH2 [Compound 286] | 24.4
Isovaleric Acid-E-T-H-[Dpa]-[bhPhe]-C—I-[Lys(1PEG2_1PEG2_IsoGlu_C18_Diacid)]-[bhPhe]-[(D)Lys]-C—NH2 [Compound 273] | 34
Butyric Acid-E-T-H-[Dpa]-P—C—I-[Lys(1PEG2_1PEG2_IsoGlu_C18_Diacid)]-[bhPhe]-[(D)Lys]-C—NH2 [Compound 259] | 18.6
Isovaleric_Acid-dIsoGlu-T-H-[Dpa]-P—C—I-[Lys(PEG12_C18_Diacid)]-[bhPhe]-[(D)Lys]-C—NH2 [Compound 311] | 20.8
Cyclohexanecarboxylic_Acid-E-T-H-[Dpa]-P—C—I-[Lys(1PEG2_1PEG2_IsoGlu_C18_Diacid)]-[bhPhe]-[(D)Lys]-C—NH2 [Compound 260] | 21.3
Isovaleric Acid-E-T-H-[Dpa]-P—C—I-[Lys(1PEG2_1PEG2_IsoGlu_C10_Diacid)]-[bhPhe]-[(D)Lys]-C—NH2 [Compound 235] | 19.6
Valeric_Acid-E-T-H-[Dpa]-P—C—I-[Lys(1PEG2_1PEG2_IsoGlu_C18_Diacid)]-[bhPhe]-[(D)Lys]-C—NH2 [Compound 264] | 622
Isovaleric Acid-E-T-H—F—P—C—I-[Lys(1PEG2_1PEG2_IsoGlu_C10_Diacid)]-F-E-P—R—S—K-G-C—NH2 [Compound 249] | 170
Isovaleric Acid-[Glu_OMe]-T-H-[Dpa]-P-[Cys]-I-[meK]-[bhPhe]-[Lys(Ahx_Palm)]-[meLys]-[Cys]-NH2 [Compound 332] | 24
Octanoic_Acid-E-T-H-[Dpa]-P—C—I-[Lys(1PEG2_1PEG2_IsoGlu_C18_Diacid)]-[bhPhe]-[(D)Lys]-C—NH2 [Compound 241] | 468
Heptanoic_Acid-E-T-H-[Dpa]-P—C—I-[Lys(1PEG2_1PEG2_IsoGlu_C18_Diacid)]-[bhPhe]-[(D)Lys]-C—NH2 [Compound 261] | 125
Isovaleric Acid-E-T-H-[Dpa]-P-[Cys]-I-[(D)Lys]-[bhPhe]-[Lys(1PEG2_1PEG2_Dap_C18_Diacid)]-[(D)Lys]-[Cys]-NH2 [Compound 333] | 64
Hexanoic_Acid-E-T-H-[Dpa]-P—C—I-[Lys(1PEG2_1PEG2_IsoGlu_C18_Diacid)]-[bhPhe]-[(D)Lys]-C—NH2 [Compound 263] | 941

Same assay, conditions: Table 2C, class symbols; read-out: FPN IC50

Substance | DC50 [nM]
[Isovaleric Acid]-E-T-L-[Dpa]-P—C—I-[(D)Lys]-[bhPhe]-[Lys(Ahx_Palm)]-[(D)Lys]-C—NH2 [Compound 618] | 101 to 500
[Isovaleric Acid]-E-T-A-[Dpa]-P—C—I-[(D)Lys]-[bhPhe]-[Lys(Ahx_Palm)]-[(D)Lys]-C—NH2 [Compound 614] | 1 to 30
[Isovaleric Acid]-E-T-[Dab]-[Dpa]-P—C—I-[(D)Lys]-[bhPhe]-[Lys(PEG12_Palm)]-R—C—NH2 [Compound 602] | 31 to 100
[Isovaleric Acid]-E-[Dab]-H-[Dpa]-P—C—I-[(D)Lys]-[bhPhe]-[Lys(PEG12_Palm)]-[(D)Lys]-C—NH2 [Compound 610] | 31 to 100
[Isovaleric Acid]-E-T-[Dap]-[Dpa]-P—C—I-[(D)Lys]-[bhPhe]-[Lys(PEG12_Palm)]-R—C—NH2 [Compound 603] | > 500
[Isovaleric Acid]-E-T-[2Pal]-[Dpa]-P—C—I-[(D)Lys]-[bhPhe]-[Lys(PEG12_Palm)]-R—C—NH2 [Compound 621] | 1 to 30
[Isovaleric Acid]-E-[Hyp]-H-[Dpa]-P—C—I-[(D)Lys]-[bhPhe]-[Lys(Ahx_Palm)]-[(D)Lys]-C—NH2 [Compound 619] | 31 to 100
[Isovaleric Acid]-E-T-A-[Dpa]-P—C—I-[(D)Lys]-[bhPhe]-[Lys(Ahx_Palm)]-[(D)Lys]-C—NH2 [Compound 613] | 31 to 100
